Biological target: 5-hydroxytryptamine receptor 1A (Rattus norvegicus, UniProt P19327)

Sequences of proteins named here, by UniProt entry; tags and fusion partners are left off.
UniProt P19327, whole entry: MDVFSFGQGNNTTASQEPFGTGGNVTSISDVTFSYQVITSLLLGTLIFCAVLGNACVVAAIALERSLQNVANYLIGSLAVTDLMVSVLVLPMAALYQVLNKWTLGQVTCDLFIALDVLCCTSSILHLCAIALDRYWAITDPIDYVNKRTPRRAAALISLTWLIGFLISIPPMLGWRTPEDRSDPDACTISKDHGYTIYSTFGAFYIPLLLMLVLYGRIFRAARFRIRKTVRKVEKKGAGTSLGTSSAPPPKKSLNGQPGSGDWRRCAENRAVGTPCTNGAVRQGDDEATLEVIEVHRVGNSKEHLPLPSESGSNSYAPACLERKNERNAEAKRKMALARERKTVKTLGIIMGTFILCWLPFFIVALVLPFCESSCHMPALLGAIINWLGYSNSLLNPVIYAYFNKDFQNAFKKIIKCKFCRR

For `NCCc1c[nH]c2ccc(O)cc12` [SEROTONIN], the Ki was 2 nM.

From ChEMBL document CHEMBL1124834, “5-HT1 and 5-HT2 binding profiles of the serotonergic agents alpha-methylserotonin and 2-methylserotonin” (J Med Chem, 1990)
